Laboratory results reported in PubChem BioAssay AID651687 (Broad Institute, 2012).
The list shows a part of the results, in another mix than the full data. Calls of active or inactive are those of the source.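 How the source made its calls: active means every replicate shows inhibition of at least 40%; inconclusive means mean inhibition at least 40% but some replicate below; inactive means the rest.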

Test: inhibitors of PGC1a acetylation signal, primary screen, cell-based, U2OS, AlphaScreen, inhibitor mode (AID 651687);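 further: 0% = neutral control wells and 100% = positive control wells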
Conditions: AlphaScreen anti-acetyl-lysine, at 15.6 µM, active compounds read high, with virally co-expressed GCN5 acetyltransferase

SMILES	inhibition
N#CC1(Nc2ccccc2)CCN(CCc2ccccc2)CC1	inactive: -2.31%
O=c1[nH]c2ccccc2n1C1CCN(C(c2ccccc2OC(F)(F)F)c2nnnn2C2CCCC2)CC1 (stereo not drawn)	inactive: -53.1%
CCN1CCC(Nc2ccc(Cl)cc2)CC1	inactive: 3.04%
O=C(NCC1(N2CCCCC2)CCCCC1)c1ccc(OC(F)F)cc1	inactive: -4.06%
CC(C)(C)n1nnnc1C(c1ccccc1OC(F)(F)F)N1CCC(n2c(=O)[nH]c3ccccc32)CC1 (stereo not drawn)	inactive: -18.2%
O=c1[nH]c2ccccc2n1C1CCN(C(c2cccc3ccccc23)c2nnnn2C2CCCC2)CC1 (stereo not drawn)	inactive: -30.8%
COc1cc(C(=O)NCC2(N(C)C)CCCCC2)ccc1OC(F)F	inactive: -3.44%
CCOC(=O)N1CCC(Nc2cccc(C)c2)CC1	inactive: -7.33%
O=c1[nH]c2ccccc2n1C1CCN(C(c2ccccc2)c2nnnn2C2CCCCC2)CC1 (stereo not drawn)	inactive: -24.7%
COc1ccc(NC2CCN(CCc3ccccc3)CC2)c(OC)c1	inactive: -9.34%
O=P1(N(CCCl)CCCl)SCCCS1	inactive: -12.2%
CCCCn1nnnc1C(c1cc2ccccc2o1)N1CCC(n2c(=O)[nH]c3ccccc32)CC1 (stereo not drawn)	inactive: -12.5%
CCOc1ccc(C)cc1CN(CCCl)CCCl	inactive: 0.438%
O=C1CCN(Cc2ccccc2)CC1	inactive: -4.9%
CC(C)(C)n1nnnc1C(c1ccccc1)N1CCC(n2c(=O)[nH]c3ccccc32)CC1 (stereo not drawn)	inactive: -12.1%
CCCCn1nnnc1C(c1ccc(OC)cc1)N1CCC(n2c(=O)[nH]c3ccccc32)CC1 (stereo not drawn)	inactive: -15.9%
CCOC(=O)N1CCC(Nc2ccc(OC)cc2)CC1	inactive: -0.349%

SMILES	inhibition
COc1ccc(Cl)cc1C(=O)NCC1(N2CCOCC2)CCCCC1	inactive: -1.7%
O=c1[nH]c2ccccc2n1C1CCN(C(c2cc3ccccc3o2)c2nnnn2C2CCCCC2)CC1 (stereo not drawn)	inactive: -30.2%
O=C(OC1CN2CCC1CC2)C1c2ccccc2Oc2ccccc21 (stereo not drawn)	inactive: -7.44%
O=C(NCC1(N2CCCCC2)CCCCC1)c1ccc(Cl)s1	inactive: 5.71%
O=C(NCC1(N2CCOCC2)CCCCC1)c1cc2ccccc2o1	inactive: -11.7%
Cc1cc(C)cc(N(C(=O)c2ccccc2)C2CCN(C(=O)OC(C)(C)C)CC2)c1	inactive: -19.9%
O=c1[nH]c2ccccc2n1C1CCN(C(c2ccccc2OC(F)(F)F)c2nnnn2C2CCCCC2)CC1 (stereo not drawn)	inactive: -53.2%
Cc1cccc(NC2(C#N)CCN(Cc3ccccc3)CC2)c1	inactive: 6.44%
CCCCn1nnnc1C(c1cccs1)N1CCC(n2c(=O)[nH]c3ccccc32)CC1 (stereo not drawn)	inactive: -14.7%
CCCCn1nnnc1C(CC)N1CCC(n2c(=O)[nH]c3ccccc32)CC1 (stereo not drawn)	inactive: -21.5%
O=C(NCC1(N2CCCCC2)CCCCC1)c1cccs1	inactive: -6.3%
O=C(NCC1(N2CCCCC2)CCCCC1)c1ccc(=O)[nH]c1	inactive: 6.42%
CCC(c1nnnn1C1CCCC1)N1CCC(n2c(=O)[nH]c3ccccc32)CC1 (stereo not drawn)	inactive: -20.8%
COc1ccc(C(=O)NCC2(N3CCCCC3)CCCCC2)c(OC)c1OC	inactive: -6.79%
CC(C)(C)OC(=O)N1CCC(N(C(=O)c2ccccc2)c2ccc(F)cc2)CC1	inactive: 1.39%
COc1ccc(C(=O)NCC2(N3CCCCC3)CCCCC2)cc1	inactive: -0.593%
